Assay [1] has as its target T1, Cannabinoid Receptor Type 1 (CB1) (Homo sapiens, UniProt P21554).
The next assay has as its target Mu Opioid Receptor (MOR) (Homo sapiens, UniProt P35372). As to the kind of experiment: biochemical. Conditions: read-out: MOR EMAX (35S-GTPγS). On the technique in general: GTPγS resists hydrolysis and so accumulates on activated G proteins.
For assay [2], the target named is T1, Cannabinoid Receptor Type 1 (CB1). Briefly: biochemical.
The subject of another assay is MOR. The note with it: ref [13]–[15]; cited from earlier work.
Assay [3] deals with T2, Kappa Opioid Receptor (KOR) (Homo sapiens, UniProt P41145). Briefly: biochemical. Conditions: KOR EC50 (35S-GTPγS).
The target of assay [4] is T2, Kappa Opioid Receptor (KOR). Briefly: biochemical. It is filed as binding. Details: membranes used.

Amino acid sequences for entries named in this document (tags omitted). A change or cut given only in a name is not applied to a line headed by its entry.
UniProt P21554, whole entry: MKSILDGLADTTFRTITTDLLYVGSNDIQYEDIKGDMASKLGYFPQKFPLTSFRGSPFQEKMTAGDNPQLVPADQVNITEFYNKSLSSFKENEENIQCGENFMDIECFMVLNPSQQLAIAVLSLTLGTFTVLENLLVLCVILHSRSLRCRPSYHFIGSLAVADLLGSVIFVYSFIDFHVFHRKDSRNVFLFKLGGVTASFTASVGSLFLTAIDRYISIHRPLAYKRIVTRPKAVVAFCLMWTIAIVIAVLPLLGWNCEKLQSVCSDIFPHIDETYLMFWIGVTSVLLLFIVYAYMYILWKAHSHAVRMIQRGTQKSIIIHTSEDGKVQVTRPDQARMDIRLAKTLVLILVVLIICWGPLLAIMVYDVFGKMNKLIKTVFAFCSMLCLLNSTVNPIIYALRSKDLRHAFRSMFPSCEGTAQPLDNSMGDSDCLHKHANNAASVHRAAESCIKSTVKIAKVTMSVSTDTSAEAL
UniProt P35372, whole entry: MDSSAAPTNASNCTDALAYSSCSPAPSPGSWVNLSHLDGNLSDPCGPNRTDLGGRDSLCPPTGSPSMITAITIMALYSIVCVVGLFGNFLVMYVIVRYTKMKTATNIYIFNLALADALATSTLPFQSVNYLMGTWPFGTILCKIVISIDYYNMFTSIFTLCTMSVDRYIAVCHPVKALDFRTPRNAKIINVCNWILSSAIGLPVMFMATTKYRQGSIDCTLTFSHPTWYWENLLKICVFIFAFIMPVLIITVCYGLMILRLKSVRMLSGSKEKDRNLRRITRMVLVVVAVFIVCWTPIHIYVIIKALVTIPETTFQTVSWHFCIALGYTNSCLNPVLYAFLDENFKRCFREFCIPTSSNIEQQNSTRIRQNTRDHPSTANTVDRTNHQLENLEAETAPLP
UniProt P41145: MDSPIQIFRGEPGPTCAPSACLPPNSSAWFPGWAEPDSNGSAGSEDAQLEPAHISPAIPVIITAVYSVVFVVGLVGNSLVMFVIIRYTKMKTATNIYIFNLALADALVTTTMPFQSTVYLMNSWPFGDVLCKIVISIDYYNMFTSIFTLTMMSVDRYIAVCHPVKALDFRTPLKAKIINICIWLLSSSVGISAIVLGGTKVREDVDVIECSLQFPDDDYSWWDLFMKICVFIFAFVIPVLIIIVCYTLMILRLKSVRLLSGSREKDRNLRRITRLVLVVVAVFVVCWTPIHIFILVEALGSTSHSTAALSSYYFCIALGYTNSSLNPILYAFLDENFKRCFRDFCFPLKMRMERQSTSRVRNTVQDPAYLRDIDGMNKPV

This is an account of results in paper PMC6553708 (PLoS ONE, 2019).

In general, Emax refers to the maximal effect, on the per cent scale that the assay sets. Broadly, the EC50 is the midpoint of the concentration-response curve. High values mean weaker potency, low ones greater potency. As usually defined, the Ki is a dissociation constant, usually derived from enzyme kinetics or from competition with a known ligand.

“And” between values parts separate entries of the source, which are not always exact repeats. Identical values can stand only once. A value given as a limit tells only on which side of the number the result lay.

Take `CN1CC[C@]23c4c5ccc(O)c4O[C@H]2C(=O)CC[C@H]3[C@H]1C5` [Hydromorphone]: the “Potential new finding: activity at CB1 (in words)” value in assay [1] is listed as “CB1 partial agonist”. The Emax at Mu Opioid Receptor (MOR) was determined as 94 ± 1%. The compound also yielded an EC50 in assay [2] above 2 µM. Further, the Emax at 10 µM in assay [2] (read-out: CB1 EMAX, in parentheses: maximum efficacy at 10 μM) is above 41.5%.
Take `CN1CC[C@]23c4c5ccc(O)c4O[C@H]2[C@@H](O)C=C[C@H]3[C@H]1C5` [Morphine]: the “operational efficacy τ in vitro” value in the assay on MOR was 3.3–5.2 and 5.
In the case of `COc1ccc2c3c1O[C@H]1C(=O)CC[C@@]4(O)[C@@H](C2)N(C)CC[C@]314` [Oxycodone], the EC50 in assay [3] is above 2 µM. This compound also yielded a Ki in assay [4] above 2 µM.
